Test [1] addresses C1s-C1r-C1r-C1s tetramer (Homo sapiens) (UniProt P00736). As to the kind of experiment: SPR. As to conditions: cited from earlier work.
Another test concerns the target Polar Assortant (PA). As to the kind of experiment: SPR.

By UniProt entry, the sequences of proteins in these tests, tags left out. Residues count along the entry.
UniProt P00736, 18-705, chain 1 of 2: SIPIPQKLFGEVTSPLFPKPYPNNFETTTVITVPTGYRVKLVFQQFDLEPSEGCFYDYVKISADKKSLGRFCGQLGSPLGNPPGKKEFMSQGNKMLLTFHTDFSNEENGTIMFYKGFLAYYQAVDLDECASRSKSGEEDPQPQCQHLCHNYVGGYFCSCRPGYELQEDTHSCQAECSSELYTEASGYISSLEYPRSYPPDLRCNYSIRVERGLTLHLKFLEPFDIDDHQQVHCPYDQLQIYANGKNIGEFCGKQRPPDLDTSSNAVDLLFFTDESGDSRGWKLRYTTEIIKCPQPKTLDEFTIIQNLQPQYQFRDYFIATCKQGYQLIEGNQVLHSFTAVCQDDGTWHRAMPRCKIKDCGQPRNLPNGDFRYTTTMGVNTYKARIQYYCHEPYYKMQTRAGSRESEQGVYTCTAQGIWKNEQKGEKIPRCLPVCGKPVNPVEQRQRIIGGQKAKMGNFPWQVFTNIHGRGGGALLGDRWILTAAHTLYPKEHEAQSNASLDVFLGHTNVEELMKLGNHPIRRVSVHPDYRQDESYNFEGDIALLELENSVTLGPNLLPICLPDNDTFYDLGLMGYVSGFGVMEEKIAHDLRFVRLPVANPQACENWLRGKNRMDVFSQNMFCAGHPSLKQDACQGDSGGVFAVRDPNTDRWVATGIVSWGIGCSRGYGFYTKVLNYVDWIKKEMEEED
UniProt P02745, 23-245: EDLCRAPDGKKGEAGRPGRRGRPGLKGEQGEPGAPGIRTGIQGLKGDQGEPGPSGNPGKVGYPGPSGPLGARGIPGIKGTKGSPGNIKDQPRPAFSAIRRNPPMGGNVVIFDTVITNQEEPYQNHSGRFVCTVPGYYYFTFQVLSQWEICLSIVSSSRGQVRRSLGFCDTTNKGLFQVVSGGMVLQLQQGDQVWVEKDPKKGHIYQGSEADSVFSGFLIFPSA
C1q, UniProt P02746, 28-253: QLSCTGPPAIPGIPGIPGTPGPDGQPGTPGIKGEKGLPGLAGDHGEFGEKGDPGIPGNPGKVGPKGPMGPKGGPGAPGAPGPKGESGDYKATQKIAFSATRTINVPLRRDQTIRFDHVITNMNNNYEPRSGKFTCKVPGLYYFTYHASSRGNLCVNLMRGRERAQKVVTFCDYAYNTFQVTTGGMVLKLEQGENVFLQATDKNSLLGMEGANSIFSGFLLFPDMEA
C1q, UniProt P02747, 29-245: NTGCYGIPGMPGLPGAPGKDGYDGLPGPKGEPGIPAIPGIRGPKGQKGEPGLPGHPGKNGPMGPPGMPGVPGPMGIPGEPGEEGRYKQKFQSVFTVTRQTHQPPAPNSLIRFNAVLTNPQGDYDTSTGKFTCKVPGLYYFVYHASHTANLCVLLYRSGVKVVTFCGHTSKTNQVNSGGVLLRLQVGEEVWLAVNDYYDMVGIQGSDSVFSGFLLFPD

Kd, koff and kon data for two substances are collected here from publication PMC3630508 (Molecular immunology, 2012).

In general, Kd refers to the constant that tells how readily two partners part at equilibrium. C1q (from UniProt P02745): the Kd in test [1] was 2.72 nM.

In general, koff refers to the rate constant with which the complex falls apart. Usually kon stands for the second-order rate constant of association. Read a low kon as slow association. In the test with Polar Assortant (PA), “human C1q (from UniProt P02745 23-245; P02746 28-253; P02747 29-245) (complex)” gave a Kd of 33.3 nM, a koff of 0.000808 s⁻¹ and a kon of 25800 M⁻¹ s⁻¹.
